The numbers were not newly measured in patent US6428819B1, “Plant extracts for the preparation of pharmaceutical compositions for the treatment of hepatitis” (priority 1996, dated 2002), which cites them from elsewhere.

This data set has as its system hepatitis C. The conditions noted are these: in combination with ribavirin.

B1: interferon-β: interferon beta given in combination with ribavirin (protein, UniProt P01574 22-187, looked up)
Interferon beta: MSYNLLGFLQRSSNFQCQKLLWQLNGRLEYCLKDRMNFDIPEEIKQLQQFQKEDAALTIYEMLQNIFAIFRQDSSSTGWNETIVENLLANVYHQINHLKTVLEEKLEKEDFTRGKLMSSLHLKRYYGRILHYLKAKEYSHCAWTIVRVEILRNFYFINRLTGYLRN
For the molecule B1, the “patients with sustained responses” value was “one third”.
